AlphaSeq binding of Ab-14 heavy chain variants to a spike HR2 peptide

Values reported by Engelhart et al. 2022, doi:10.1038/s41597-022-01779-4 (FLAb copy).

Antigen: PDVDLGDISGINAS, a 14-residue peptide of the SARS-CoV-2 spike HR2 region.

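The parent was found by panning a naive human phage display library on the peptide. Library AAYL49 holds single substitutions and randomly drawn double and triple substitutions in the CDRs. Affinity was read by AlphaSeq, a pooled yeast mating assay with surface-displayed partners. Mating (16 h, 30 °C) was followed by selection of diploids and sequencing of their barcodes. Each replicate has its own calibration line, from reference interactions of the BCL2 family. Mating was done three times.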

Each scFv is VH, a 15-residue (Gly4Ser)3 linker, VL, as in the parent Ab-14, and differs from it in the CDRs of the heavy chain only.
VH: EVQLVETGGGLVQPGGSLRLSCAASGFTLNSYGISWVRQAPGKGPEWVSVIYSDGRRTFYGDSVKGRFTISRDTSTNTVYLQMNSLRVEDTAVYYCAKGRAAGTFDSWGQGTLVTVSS
VL: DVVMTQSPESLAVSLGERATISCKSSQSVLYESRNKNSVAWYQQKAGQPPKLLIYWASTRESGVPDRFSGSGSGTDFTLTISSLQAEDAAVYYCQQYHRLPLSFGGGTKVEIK

The whole VH of each variant is written out. Affinities are written as log10 Kd with Kd in nM; a lower number is a better binder. A pair that was not seen in that replicate is written "nd"; this usually means weak binding, but a binder can also be missed. Three control strains display no target. For library AAYL49, 15% of the pairings with them gave a signal, with a median of 4.06 and one signal in twenty below 2.83, so weak values seen in few replicates may be background. For each scFv, signals with the empty controls are counted beside the result, with their mean in brackets. In this assay the parent's reference entry averaged 0.65; its copy inside this library read 4.11 (one replicate of three).

| VH | replicates, log10 nM | control signals |
|---|---|---|
| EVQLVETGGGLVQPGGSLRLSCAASGFTLNSYGISWVRQAPGKGPEWVSVIYPDGYRTFYEDSVKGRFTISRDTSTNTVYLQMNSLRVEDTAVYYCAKGRAAGTFDSWGQGTLVTVSS | 2.31 / 1.97 / nd | 2/9 (2.61) |
| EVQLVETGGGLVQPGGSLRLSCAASGFTLNSYGISWVRQAPGKGPEWVSVIYSDGRRTFYGDSVLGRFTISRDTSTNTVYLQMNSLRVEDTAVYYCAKGRAAGTFDSWGQGTLVTVSS | 1.96 / 1.95 / 2.07 | 4/9 (4.35) |
| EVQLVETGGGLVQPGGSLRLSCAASGFTLNSYVGSWVRQAPGKGPEWVSVIYSDGRRTFYGDSVKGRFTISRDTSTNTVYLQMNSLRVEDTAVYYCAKGRQAGTFDSWGQGTLVTVSS | nd / nd / nd | 1/9 (3.68) |
| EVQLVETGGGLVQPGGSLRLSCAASGFTLNSKVISWVRQAPGKGPEWVSVIYSDGRRTFYGDSVKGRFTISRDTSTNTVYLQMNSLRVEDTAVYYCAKGRARGTFDSWGQGTLVTVSS | nd / nd / nd | 3/9 (4.03) |
| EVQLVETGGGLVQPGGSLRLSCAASIFTLNMYGISWVRQAPGKGPEWVSVIYSDKRRTFYGDSVKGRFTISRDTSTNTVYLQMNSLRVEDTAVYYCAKGRAAGTFDSWGQGTLVTVSS | nd / nd / nd | 0/9 |
| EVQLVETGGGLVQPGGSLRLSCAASGFTLNSYGISWVRQAPGKGPEWVSVIYSDGRRTFYGDSVQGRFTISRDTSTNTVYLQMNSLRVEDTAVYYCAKGMAAGTFDSWGQGTLVTVSS | 1.92 / 1.74 / 1.69 | 2/9 (4.00) |
| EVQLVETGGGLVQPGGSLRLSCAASGFGLNSYGISWVRQAPGKGPEWVSVIYHDGRRTFYGDQVKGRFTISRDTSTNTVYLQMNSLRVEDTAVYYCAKGRAAGTFDSWGQGTLVTVSS | 1.59 / 1.64 / 1.69 | 1/9 (3.52) |
| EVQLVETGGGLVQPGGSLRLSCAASGFTLNSYGIYWVRQAPGKGPEWVSVIYSDGRETFYGDEVKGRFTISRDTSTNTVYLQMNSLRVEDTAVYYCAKGRAAGTFDSWGQGTLVTVSS | 5.84 / 3.69 / 5.68 | 1/9 (4.16) |
| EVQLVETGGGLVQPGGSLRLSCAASPFTLNSYGISWVRQAPGKGPEWVSVIYSDGRRDFFGDSVKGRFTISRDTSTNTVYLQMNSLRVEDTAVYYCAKGRAAGTFDSWGQGTLVTVSS | 5.07 / nd / nd | 2/9 (3.99) |
| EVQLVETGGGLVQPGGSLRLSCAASGFTLNSYISSWVRQAPGKGPEWVSVIYSDGRRTFYGDFVKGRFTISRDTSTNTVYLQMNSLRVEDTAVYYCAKGRAAGTFDSWGQGTLVTVSS | 4.67 / nd / nd | 1/9 (4.10) |
| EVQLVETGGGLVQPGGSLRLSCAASGFTVTSYGISWVRQAPGKGPEWVSVVYSDGRRTFYGDSVKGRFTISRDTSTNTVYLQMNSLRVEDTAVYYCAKGRAAGTFDSWGQGTLVTVSS | 2.57 / 2.94 / 3.38 | 1/9 (3.31) |
| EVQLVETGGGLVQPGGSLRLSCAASGFTLNSYTILWVRQAPGKGPEWVSVIYSDGRRTFYGDSVKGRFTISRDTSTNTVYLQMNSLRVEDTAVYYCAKGRSAGTFDSWGQGTLVTVSS | nd / nd / nd | 3/9 (3.92) |
| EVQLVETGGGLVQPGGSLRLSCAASGFTLNSYGISWVRQAPGKGPEWVSVIYSNGRRTFYGDDVKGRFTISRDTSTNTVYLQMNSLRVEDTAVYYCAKGRAAGTFKSWGQGTLVTVSS | nd / nd / nd | 0/9 |
| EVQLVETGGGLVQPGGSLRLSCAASGFTLISYGISWVRQAPGKGPEWVSVIYSDGSRTFYGDSVKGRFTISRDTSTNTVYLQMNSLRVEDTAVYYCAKSRAAGTFDSWGQGTLVTVSS | nd / nd / nd | 0/9 |
| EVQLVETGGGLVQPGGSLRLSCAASGQTLNSYGIYWVRQAPGKGPEWVSVIYSDGRRTFYGDSVKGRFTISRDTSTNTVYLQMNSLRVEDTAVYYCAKGRGAGTFDSWGQGTLVTVSS | nd / nd / nd | 2/9 (4.40) |
| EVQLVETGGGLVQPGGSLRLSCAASGFTLNVYGISWVRQAPGKGPEWVSVCYSDGSRTFYGDSVKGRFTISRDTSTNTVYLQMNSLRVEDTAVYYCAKGRAAGTFDSWGQGTLVTVSS | nd / nd / nd | 0/9 |
| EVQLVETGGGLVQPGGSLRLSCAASHFTLNSYGISWVRQAPGKGPEWVSVIFSDGRRTFSGDSVKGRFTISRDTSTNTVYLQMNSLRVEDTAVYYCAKGRAAGTFDSWGQGTLVTVSS | nd / nd / nd | 3/9 (3.37) |
| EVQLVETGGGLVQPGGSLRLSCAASGFTLNSYDISWVRQAPGKGPEWVSVIYSDGRRTFTGDSVKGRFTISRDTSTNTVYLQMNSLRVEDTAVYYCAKGRAAGTFDSWGQGTLVTVSS | nd / nd / nd | 0/9 |
| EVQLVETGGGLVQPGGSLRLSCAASGFTLNSYGISWVRQAPGKGPEWVSVIYSDARRTFYGDSVKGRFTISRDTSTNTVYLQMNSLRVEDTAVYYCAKPRAAGTFDSWGQGTLVTVSS | nd / nd / nd | 1/9 (3.49) |
| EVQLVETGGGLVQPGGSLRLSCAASGFTLNSYGISWVRQAPGKGPEWVSDIYSDGRRTFYGDIDKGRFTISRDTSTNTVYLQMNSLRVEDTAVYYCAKGRAAGTFDSWGQGTLVTVSS | nd / nd / nd | 0/9 |
| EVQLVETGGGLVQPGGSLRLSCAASGFTLNSYGISWVRQAPGKGPEWVSVIYSDGRRTFYGDSVMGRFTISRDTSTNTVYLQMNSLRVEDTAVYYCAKGRALKTFDSWGQGTLVTVSS | nd / nd / nd | 0/9 |
| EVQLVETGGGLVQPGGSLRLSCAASGFTLNSYGFSWVRQAPGKGPEWVSVICSDGRRTFYGDSVKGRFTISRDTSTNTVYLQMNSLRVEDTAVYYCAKGRAAGGFDSWGQGTLVTVSS | nd / 4.52 / nd | 3/9 (4.25) |
| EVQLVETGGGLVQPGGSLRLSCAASHFTLNSYCISWVRQAPGKGPEWVSVIYSDGRRTFYGDSVKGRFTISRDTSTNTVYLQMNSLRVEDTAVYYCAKVRAAGTFDSWGQGTLVTVSS | nd / nd / nd | 1/9 (4.01) |
| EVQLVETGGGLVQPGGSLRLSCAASGFTLGSYGISWVRQAPGKGPEWVSVIYSDGRRTWYGDSVKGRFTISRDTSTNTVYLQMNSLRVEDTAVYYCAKGRARGTFDSWGQGTLVTVSS | 2.00 / 1.56 / 1.77 | 3/9 (4.65) |

Repeated from above, the 2 best binders with a signal in all replicates:

| VH | replicates, log10 nM | control signals |
|---|---|---|
| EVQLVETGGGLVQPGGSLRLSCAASGFGLNSYGISWVRQAPGKGPEWVSVIYHDGRRTFYGDQVKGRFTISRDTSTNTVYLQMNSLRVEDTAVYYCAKGRAAGTFDSWGQGTLVTVSS | 1.59 / 1.64 / 1.69 | 1/9 (3.52) |
| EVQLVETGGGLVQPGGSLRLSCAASGFTLGSYGISWVRQAPGKGPEWVSVIYSDGRRTWYGDSVKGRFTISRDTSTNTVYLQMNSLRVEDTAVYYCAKGRARGTFDSWGQGTLVTVSS | 2.00 / 1.56 / 1.77 | 3/9 (4.65) |